Data reported in patent publication US20140378460A1, “COMPOSITIONS AND METHODS FOR TREATING NEURODEGENERATIVE DISEASE” (COGNITION THERAPEUTICS, INC., priority 2011, published 2014).

Assays:
[1] = system: Abeta oligomer-induced membrane trafficking deficits in primary hippocampal neurons; test: Membrane trafficking/exocytosis (MTT) assay; assay type: cell-based, rat; details: 20 uM versus 0 uM enantiomer
[2] = system: Abeta oligomer-induced memory deficits in wt C57BL/6 mice; test: Contextual fear conditioning, intrahippocampal Abeta oligomers; details: mouse, in vivo
Experimental: Several pharmaceutical companies use this same model in their discovery efforts. Contextual fear conditioning is an accepted model of associative memory formation which correlates to human cognitive function and specifically the creation of new memories (Delgado '06). Abeta oligomers are injected into the hippocampus of wild-type animals immediately before conditioning training and memory is assessed via freezing behavior after 24 hours. See, for example, FIGS. 4 and 8. Details are provided in Example 9. […] This model system was chosen because intrahippocampal administration of oligomers allows rapid comparative assessment of compound activity and off-target toxicity. The results are shown graphically in FIG. 4.
Compound II was tested in an animal model of a memory-dependent behavioral task known as fear conditioning. The study protocol was designed based on published protocols (See e.g. Puzzo D, Privitera L, Leznik E, Fà M, Staniszewski A, Palmeri A, Arancio O. Picomolar amyloid-beta positively modulates synaptic plasticity and memory in hippocampus. J. Neurosci. 2008 Dec. 31; 28(53):14537-45.). The formation of contextual memories is dependent upon the integrity of medial temporal lobe structures such as the hippocampus. […]

[3] = male, C57BL/6, mouse
[4] = Mouse hepatic microsome stability; details: microsomes
Sigma-1 receptors = details: Table 11E, clinical compounds; first figure of S1/S2; read-out: Sigma Affinity (S1); cited from earlier work

COc1cc(CCC(C)NCc2ccc(C(F)(F)F)cc2)ccc1O (single isomer, unassigned; (+)) [(+) enantiomer of Cpd II]
Curve shift (fold) [1]: 2.86 fold

COc1cc(CCC(C)NCc2ccc(C(F)(F)F)cc2)ccc1O (single isomer, unassigned; (-)) [(−) enantiomer of Cpd II]
Curve shift (fold) [1]: 1.22 fold

COc1cc(CCC(C)NCc2ccc(C(F)(F)F)cc2)ccc1O (stereo not shown) [Compound II]
Behavioral efficiency [2]: Yes | brain concentration relative to the efficacious brain dose in vivo ([3]; 180 min): 57 × | amount in brain relative to the 50 ng/mL efficacious dose ([3]; in vivo, po, 3 h): ~40 × | half-life [4]: 16 min

CC(C)=CCN1CCC2(C)c3cc(O)ccc3CC1C2C (stereo not shown) [Pentazocine, pentazocine]
Ki (Sigma-1 receptors): 1.2 nM
